BindingDB's records for PubMed 7815359 (University of Pennsylvania, 1995)

By UniProt entry, the sequences of proteins in these tests, tags left out.
UniProt P35372, whole entry: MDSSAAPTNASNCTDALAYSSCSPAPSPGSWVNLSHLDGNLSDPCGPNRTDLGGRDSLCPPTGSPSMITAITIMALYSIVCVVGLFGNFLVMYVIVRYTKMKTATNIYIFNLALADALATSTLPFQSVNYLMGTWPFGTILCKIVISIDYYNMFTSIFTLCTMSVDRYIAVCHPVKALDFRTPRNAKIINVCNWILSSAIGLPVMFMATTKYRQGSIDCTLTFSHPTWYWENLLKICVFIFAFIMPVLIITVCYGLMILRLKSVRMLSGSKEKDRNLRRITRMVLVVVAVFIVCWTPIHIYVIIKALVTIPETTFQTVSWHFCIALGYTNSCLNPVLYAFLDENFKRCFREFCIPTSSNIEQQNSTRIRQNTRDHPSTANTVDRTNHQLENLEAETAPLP

Molecular target: Mu-type opioid receptor (Homo sapiens, UniProt P35372)

Q: `CN1CCC23CCCCC2C1Cc1ccc(O)cc13` (stereo unspecified) [17-methyl-17-azatetracyclo[7.5.3.0^{1,10}.0^{2,7}]heptadeca-2(7),3,5-trien-4-ol] was tested. Which Ki did it give?
A: 1000 nM
